From patent US20260062420A1, “NOVEL DPP1 INHIBITORS AND USES THEREOF” (Insmed Incorporated, priority 2022, published 2026)

Amino acid sequences for entries named in this document (tags omitted). Residues count along the entry.
UniProt P53634, 395-463: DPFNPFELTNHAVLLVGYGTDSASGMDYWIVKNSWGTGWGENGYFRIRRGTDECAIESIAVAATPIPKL
UniProt P53634, 25-134: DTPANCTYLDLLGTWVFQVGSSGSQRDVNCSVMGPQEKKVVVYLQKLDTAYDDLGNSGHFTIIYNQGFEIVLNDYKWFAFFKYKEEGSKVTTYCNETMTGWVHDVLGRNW
UniProt P53634, 231-394: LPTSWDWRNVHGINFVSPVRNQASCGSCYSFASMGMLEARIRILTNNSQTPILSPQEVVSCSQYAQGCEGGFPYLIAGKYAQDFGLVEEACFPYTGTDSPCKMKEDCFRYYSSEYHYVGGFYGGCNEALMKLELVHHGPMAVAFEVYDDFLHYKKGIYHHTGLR

Experiments:
[1] = biological target: Recombinant human DPP1 enzyme (Homo sapiens (Human), UniProt P53634); assay: Human DPP1 Enzyme IC50 Assay; type: biochemical; settings: Table 16
Protocol: Recombinant human DPP1 enzyme (R&D Systems; Minneapolis, MN) was first proteolytically processed into its mature form using recombinant human cathepsin L (R&D Systems) in a buffer consisting of 20 mM citric acid pH 4.5, 150 mM NaCl, 1 mM EDTA and 10 mM DTT. Test articles were applied to activated human DPP1 enzyme in Assay Buffer (25 mM MES pH 6.0, 50 mM NaCl, 5 mM DTT) in a total reaction volume of 125 μL. 25 μL of compound in Assay Buffer plus 5% DMSO was first added to 50 μL of activated human DPP1 enzyme at a concentration of 1 ng/μL and allowed to pre-incubate for 10 minutes at 37° C. after which 50 μL of 1000 μM H-Gly-Arg-AMC substrate (Bachem; St. Torrance, CA) was added, giving final substrate concentration of 400 μM and a final DMSO concentration of 1%. Substrate cleavage was measured for 90 minutes at 37° C., with fluorescence at Excitation/Emission 350/450 nm measured every 5 minutes. DPP1 concentration was interpolated based on its activity relative to a standard curve of activated human recombinant DPP1 enzyme. IC50 values for each compound were calculated via the XLFit (IDBS Version 5.3.1.3) Add-On to Microsoft Excel using the four parameter fit equation y={A+[(B−A)]/[1+((C/x)^D)]}, which appears as equation number 205 (4 Parameter Logistic Model or Sigmoidal Dose-Response Model) in XLFit. Default constraints were used for each Parameter.

DPP1 in HL-60 cells = DPP1 in HL-60 cells (Homo sapiens (Human), UniProt P53634); assay: DPP1 Cell IC50 Assay (HL-60 cells, H-Gly-Phe-AFC substrate); type: cell-based; settings: Table 16
Protocol: HL-60 cells (ATCC; Manassas, VA) were maintained in RPMI-1640 supplemented with 20% heat-inactivated FBS and 1× Antibiotic Antimycotic (Cytiva; Marlborough, MA). Media was changed every three to four days and cells were not allowed to exceed 1×10^6 cells per mL. Prior to assay, cells were collected by centrifugation at 500 rcf for 3 minutes, resuspended in PBS and counted. Cells were diluted in PBS to a concentration of 5×10^5 live cells per mL and transferred to black 96-well plates for assay, 60 μL per well. Test articles were diluted in PBS plus 0.5% DMSO, and 20 μL was added to each assay well. […] Plates were returned to the incubator with shaking at 100 rpm for 30 minutes, after which fluorescence was measured at Excitation/Emission 400/505 nm. % Inhibition was calculated from RFU values compared to control cell wells that received only PBS plus 0.5% DMSO. IC50 values for each compound were calculated via the XLFit (IDBS Version 5.3.1.3) Add-On to Microsoft Excel using the four parameter fit equation y=(A+((B−A)/(1+((C/x)^D)))), which appears as equation number 205 (4 Parameter Logistic Model or Sigmoidal Dose-Response Model) in XLFit.

| IC50 [1] [nM] | IC50 (DPP1 in HL-60 cells) [nM] | Compound |
| --- | --- | --- |
| 6.6 | 1.3 | Cn1c(=O)oc2ccc(-c3ccc(C[C@@H](C#N)NC(=O)[C@@H]4CNCCCO4)c(F)c3)cc21 |
| 6 | 1.2 | [2H]C([2H])([2H])n1c(=O)oc2ccc(-c3ccc(C[C@@H](C#N)NC(=O)[C@@H]4CNCCCO4)c(F)c3)cc21 |
